The results in this text go back to paper PMC8274062, “Promising Non-cytotoxic Monosubstituted Chalcones to Target Monoamine Oxidase-B” (ACS Medicinal Chemistry Letters, 2021).

Protein sequences, listed by entry. Tags and fused reporters are not part of them.
UniProt P27338, whole entry: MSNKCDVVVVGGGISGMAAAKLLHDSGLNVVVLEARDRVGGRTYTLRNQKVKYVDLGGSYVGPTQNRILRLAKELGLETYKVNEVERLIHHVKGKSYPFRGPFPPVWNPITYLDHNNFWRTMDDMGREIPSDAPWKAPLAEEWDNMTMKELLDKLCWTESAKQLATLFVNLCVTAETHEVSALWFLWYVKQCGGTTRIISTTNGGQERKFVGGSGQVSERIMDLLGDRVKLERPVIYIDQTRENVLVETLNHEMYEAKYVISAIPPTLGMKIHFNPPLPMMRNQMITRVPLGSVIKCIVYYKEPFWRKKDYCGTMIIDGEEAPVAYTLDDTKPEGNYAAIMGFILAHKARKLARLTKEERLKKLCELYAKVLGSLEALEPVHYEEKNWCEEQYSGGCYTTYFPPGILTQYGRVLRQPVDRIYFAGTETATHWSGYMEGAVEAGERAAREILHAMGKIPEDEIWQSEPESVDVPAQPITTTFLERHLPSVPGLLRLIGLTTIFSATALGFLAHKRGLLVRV

This experiment addresses human recombinant MAO-B (Homo sapiens, UniProt P27338). Kind of experiment: Monoamine oxidase inhibition assay (Amplex Red, kynuramine), MAO-B. The conditions noted are these: S.I. = Ki(MAO-A)/Ki(MAO-B).

For the molecule `O=C(/C=C/c1ccccc1)c1cccc(C(F)(F)F)c1` [Compound 13], the “S.I. (selectivity index)” value is reported as 920.
